Sequences of proteins named here, by UniProt entry; tags and fusion partners are left off.
UniProt P34969, whole entry: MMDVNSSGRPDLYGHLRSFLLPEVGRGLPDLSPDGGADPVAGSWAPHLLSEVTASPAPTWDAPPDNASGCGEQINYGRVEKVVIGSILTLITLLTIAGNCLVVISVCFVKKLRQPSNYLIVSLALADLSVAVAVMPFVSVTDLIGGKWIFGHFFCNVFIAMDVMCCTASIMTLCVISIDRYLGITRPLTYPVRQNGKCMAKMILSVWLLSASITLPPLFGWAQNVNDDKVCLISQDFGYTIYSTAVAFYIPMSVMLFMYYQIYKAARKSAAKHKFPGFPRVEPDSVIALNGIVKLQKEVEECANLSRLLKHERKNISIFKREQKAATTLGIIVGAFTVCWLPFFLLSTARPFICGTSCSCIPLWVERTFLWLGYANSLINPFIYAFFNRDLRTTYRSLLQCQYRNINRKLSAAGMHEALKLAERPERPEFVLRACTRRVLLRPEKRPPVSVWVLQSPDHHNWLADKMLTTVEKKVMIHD

In patent publication US11160758B2, “Modified release formulations and uses thereof” (Sunovion Pharmaceuticals Inc., priority 2019, dated 2021):

Target: Serotonin 5-HT7 receptors (Homo sapiens, UniProt P34969)
Experiment: radioligand binding, [3H]LSD, receptors expressed in CHO-K1 cells

Row | SMILES | 5-HT7/D2 (Table 19, ratio of Ki values) | 5-HT7 antagonism relative to that of the (S)-amisulpride (FIG. 5B)
1 | CCN1CCCC1CNC(=O)c1cc(S(=O)(=O)CC)c(N)cc1OC (racemic) [Racemic (50:50)] | 13 | 
2 | CCN1CCC[C@@H]1CNC(=O)c1cc(S(=O)(=O)CC)c(N)cc1OC [(R)-amisulpride, R-4-Amino-N-[(1-ethyl-2-pyrrolidinyl)methyl]-5-(ethylsulfonyl)-2-methoxybenzamide] |  | about 300 fold
